Source: PMC9939731

How the values were obtained:
[1] = molecular target: RbBP5–Ash2L–DPY30 subcomplex (human) (UniProt Q15291); assay: AUC; SV-AUC of purified MWRAD2 loaded at 0.25-5 uM, 5 °C, 50,000 rpm, absorbance optics; c(s) in SEDFIT; sw isotherm fit to an A + B = AB heteroassociation model in SEDPHAT; apparent Kd
[2] = molecular target: RbBP5–Ash2L–DPY30 subcomplex (human) (UniProt Q15291); assay: AUC; SV-AUC of purified MWRAD2 loaded at 0.25-5 uM, 10 °C, 50,000 rpm, absorbance optics; c(s) in SEDFIT; sw isotherm fit to an A + B = AB heteroassociation model in SEDPHAT; apparent Kd
[3] = molecular target: RbBP5–Ash2L–DPY30 subcomplex (human) (UniProt Q15291); assay: AUC; SV-AUC of purified MWRAD2 loaded at 0.25-5 uM, 15 °C, 50,000 rpm, absorbance optics; c(s) in SEDFIT; sw isotherm fit to an A + B = AB heteroassociation model in SEDPHAT; apparent Kd
[4] = molecular target: RbBP5–Ash2L–DPY30 subcomplex (human) (UniProt Q15291); assay: AUC; SV-AUC of purified MWRAD2 loaded at 0.25-5 uM, 20 °C, 50,000 rpm, absorbance optics; c(s) in SEDFIT; sw isotherm fit to an A + B = AB heteroassociation model in SEDPHAT; apparent Kd
[5] = molecular target: RbBP5–Ash2L–DPY30 subcomplex (human) (UniProt Q15291); assay: AUC; SV-AUC of purified MWRAD2 loaded at 0.25-5 uM, 30 °C, 50,000 rpm, absorbance optics; c(s) in SEDFIT; sw isotherm fit to an A + B = AB heteroassociation model in SEDPHAT; apparent Kd
[6] = molecular target: RbBP5–Ash2L–DPY30 subcomplex (human) (UniProt Q15291); assay: AUC; SV-AUC of purified MWRAD2 loaded at 0.25-5 uM, 37 °C, 50,000 rpm, absorbance optics; c(s) in SEDFIT; sw isotherm fit to an A + B = AB heteroassociation model in SEDPHAT; apparent Kd
[7] = molecular target: RbBP5–Ash2L–DPY30 subcomplex (human) (UniProt Q15291); assay: AUC; SV-AUC of purified MWRAD2 loaded at 0.25-5 uM, 25 °C, 50,000 rpm, absorbance optics; c(s) in SEDFIT and Bayesian c(p)(s) analysis with S values of subcomplexes as prior expectations; sw isotherm fit to an A + B = AB heteroassociation model in SEDPHAT; apparent Kd

Substance: MLL1–WDR5 heterodimer (from UniProt Q03164 3745-3969; P61964 2-334) (complex)
- pKd [1]: 8.15
- pKd [2]: 8.15
- pKd [3]: 7.70
- pKd [4]: 7.52
- pKd [5]: 6.54
- pKd [6]: 5.21
- pKd [7]: 7.21

pKd: −log10 of the molar value.
